Results from publication PMC7723054.
The other results are listed elsewhere or left out.

T1: LIN28A (human?, UniProt Q9H9Z2 1-209)
T1 sequence: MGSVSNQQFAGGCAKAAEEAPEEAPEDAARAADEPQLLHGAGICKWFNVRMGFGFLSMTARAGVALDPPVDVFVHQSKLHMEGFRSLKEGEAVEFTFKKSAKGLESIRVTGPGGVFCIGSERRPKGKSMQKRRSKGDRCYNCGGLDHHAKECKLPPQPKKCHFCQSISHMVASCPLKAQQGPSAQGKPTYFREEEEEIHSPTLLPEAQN

T2: CIRBP (Homo sapiens, UniProt Q14011 1-172)
T2 sequence: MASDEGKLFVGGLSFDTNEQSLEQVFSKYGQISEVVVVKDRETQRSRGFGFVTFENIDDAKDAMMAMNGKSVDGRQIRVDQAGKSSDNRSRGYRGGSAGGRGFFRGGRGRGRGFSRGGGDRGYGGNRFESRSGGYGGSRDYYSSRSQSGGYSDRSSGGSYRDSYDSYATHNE

T3: DHX36 (Homo sapiens, UniProt Q9H2U1 1-1008)
T3 sequence: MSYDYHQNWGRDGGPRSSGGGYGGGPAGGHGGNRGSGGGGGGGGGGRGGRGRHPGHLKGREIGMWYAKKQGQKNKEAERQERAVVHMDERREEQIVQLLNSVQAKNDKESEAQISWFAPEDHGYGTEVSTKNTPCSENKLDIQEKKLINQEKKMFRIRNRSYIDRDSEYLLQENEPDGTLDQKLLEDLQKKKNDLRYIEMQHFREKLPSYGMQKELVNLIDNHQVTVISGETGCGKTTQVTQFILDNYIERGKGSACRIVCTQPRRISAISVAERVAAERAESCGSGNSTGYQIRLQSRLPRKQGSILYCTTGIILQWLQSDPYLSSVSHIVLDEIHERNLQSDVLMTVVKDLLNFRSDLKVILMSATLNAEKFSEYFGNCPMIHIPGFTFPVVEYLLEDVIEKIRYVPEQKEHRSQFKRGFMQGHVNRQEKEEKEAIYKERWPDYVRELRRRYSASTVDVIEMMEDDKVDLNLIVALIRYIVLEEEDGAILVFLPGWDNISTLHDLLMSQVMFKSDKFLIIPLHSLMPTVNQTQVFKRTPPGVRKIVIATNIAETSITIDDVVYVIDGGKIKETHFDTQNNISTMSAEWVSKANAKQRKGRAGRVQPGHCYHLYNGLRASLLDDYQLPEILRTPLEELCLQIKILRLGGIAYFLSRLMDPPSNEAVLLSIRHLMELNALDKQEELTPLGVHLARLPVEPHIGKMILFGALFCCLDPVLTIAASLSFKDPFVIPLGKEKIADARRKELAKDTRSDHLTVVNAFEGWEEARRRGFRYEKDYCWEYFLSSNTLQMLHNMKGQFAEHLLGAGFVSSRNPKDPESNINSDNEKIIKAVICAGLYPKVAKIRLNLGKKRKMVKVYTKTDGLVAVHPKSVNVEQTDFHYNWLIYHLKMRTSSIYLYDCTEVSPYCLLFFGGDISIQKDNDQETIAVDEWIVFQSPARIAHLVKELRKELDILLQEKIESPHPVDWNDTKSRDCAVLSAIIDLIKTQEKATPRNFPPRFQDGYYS

B1: hsa-mir-6801 (structured_RNA)
RNA: GGGACAUAUAUGGGCUCGGCCACCCUAAGGUGUACGAAGUUUCAGCAAAUGAGAGUUAGCCAGGAGCUUUGCAUACUCAGCUGAAGCUUCGUGCAC
B2: hsa-mir-130b (structured_RNA)
RNA: GGGAAUAUGAGGAUCACGCGCCGCAAAAGGUGUACGAAGUUUCAGCACUACUAUAGGCCGCUGGGAAGCAGUGCUGAAGCUUCGUGCAC
B3: hsa-mir-218-1 (structured_RNA)
RNA: GGGAAGGCCGUAGUCCGUGAAAGGCAAUGGUGUACGAAGUUUCAGCCCAUGUGGUUGCGAGGUAUGAGUAAAACAUGGGCUGAAGCUUCGUGCAC
B4: hsa-mir-195 (structured_RNA)
RNA: GGGACAAUCCGCGAGUCGAAUAAAAGUGGGUGUACGAAGUUUCAGCUUGGCACAGGGAAGCGAGUCUGCCAAGCUGAAGCUUCGUGCAC
B5: hsa-mir-624 (structured_RNA)
RNA: GGGAGGCAGUAGUGUAUACCCAGUGAGGGGUGUACGAAGUUUCAGCUGUGUUCAGUGGAACCAAGGUAAACACAGCUGAAGCUUCGUGCAC
B6: hsa-mir-1289-1 (structured_RNA)
RNA: GGGACACGAAACGAUUUGUUGAACGACUGGUGUACGAAGUUUCAGCUCCACCCCCAGAGAAUCCCUAAACCGGGGGUGGAGCUGAAGCUUCGUGCAC
B7: hsa-mir-562 (structured_RNA)
RNA: GGGAAGCAUGGAUCUAUAAAAUGGCUCCGGUGUACGAAGUUUCAGCCUUUUAGAGUAAUUGUGAAACUGUUUUUCAAAGGCUGAAGCUUCGUGCAC
B8: hsa-mir-4536-2 (structured_RNA)
RNA: GGGACGAAGCGAGAUAAGUACGACUCUAGGUGUACGAAGUUUCAGCACGAUAUAGGUAUGUAUGUAUGUAUGUAUAAAAGCAGGGCAGUAUAUAUAUCGUGCUGAAGCUUCGUGCAC
B9: hsa-mir-499b (structured_RNA)
RNA: GGGAAAAUCCAAGGUCUAUGAUGUGGUCGGUGUACGAAGUUUCAGCUGUUCACGUGGAGAGGAGUUAAACAGCUGAAGCUUCGUGCAC
B10: hsa-mir-548j (structured_RNA)
RNA: GGGAGACGGAAGACCUUUGCUACGGGUAGGUGUACGAAGUUUCAGCUUUGGUAUUACUUUCAGUGGCAAAGCUGAAGCUUCGUGCAC
B11: hsa-mir-548h-4 (structured_RNA)
RNA: GGGACAAACUUGCCAGGGUGUUCUGACCGGUGUACGAAGUUUCAGCUUUGUCAUUACUUUAAUUACUUUACGUUUCAUUAAUGACAAAGCUGAAGCUUCGUGCAC
B12: hsa-mir-4540 (structured_RNA)
RNA: GGGAAUUAGUUGAGGUCGGACUCUCGACGGUGUACGAAGUUUCAGCCUUGGCACCUUUGGCCUUAGGCUGAAGCUUCGUGCAC
B13: hsa-mir-518e (structured_RNA)
RNA: GGGAAUUGGGAAGUGGGACAUAGGACGCGGUGUACGAAGUUUCAGCCUUUCUGUUGGCUAAAAGAAAAGAAAGGCUGAAGCUUCGUGCAC
B14: hsa-mir-6082 (structured_RNA)
RNA: GGGAACGCAGCAAUCGGAUUGCAACAUUGGUGUACGAAGUUUCAGCAUCCAGUCCACUUAAUUCUGAGAAAGUCCACAGACUGGAUCGGGUCUUGGAUUUUAGCUGGAUUCAUGCUGAAGCUUCGUGCAC
B15: hsa-mir-3655 (structured_RNA)
RNA: GGGACCUAUACGUCGAUGGUCCUUGAACGGUGUACGAAGUUUCAGCUGCUGUUGGAGACUCGAUUGUUGGUGACAGCGAAAGAACGAUAACAAAGCUGAAGCUUCGUGCAC
B16: G4_(UGGU)6 (structured_RNA)
RNA: GGGACAUGGUAUAGUAGACGUUAGUAGGGGUGUACGAAGUUUCAGCUGGUUGGUUGGUUGGUUGGUUGGUGCUGAAGCUUCGUGCAC
B17: G4_(UGGGU)6 (structured_RNA)
RNA: GGGAGAAUCCCGCGGAGGCUGCUAUAAAGGUGUACGAAGUUUCAGCUGGGUUGGGUUGGGUUGGGUUGGGUUGGGUGCUGAAGCUUCGUGCAC
B18: hsa-mir-4663 (structured_RNA)
RNA: GGGACAGGUUGGCACACCGACUAUCACUGGUGUACGAAGUUUCAGCCAGUGGCAUCUGUCAUUGGCUGAAGCUUCGUGCAC
B19: PARIS_ID9 (structured_RNA)
RNA: GGGAGAACUUCGCACCGCAUGAAGUCCUGGUGUACGAAGUUUCAGCAGGACAAUACAGACAGUAACUCCUAUGGUUACAAUGAACACUCCUGCUGAAGCUUCGUGCAC
B20: hsa-mir-532 (structured_RNA)
RNA: GGGAAAAGCGACGGAGCUUGUAUAUCCCGGUGUACGAAGUUUCAGCGACCGUUGGCAUCUUAAUUACCCUCGCUGAAGCUUCGUGCAC
B21: hsa-mir-1207 (structured_RNA)
RNA: GGGAAUAUUGGAAACUGGGGUUCCCCUAGGUGUACGAAGUUUCAGCGGGGCUGGCUGGGUCUGGUAGUGGGCAUCAGCUGGCCCUGCUGAAGCUUCGUGCAC
B22: G4_(UGGU)8 (structured_RNA)
RNA: GGGAAAGACUUUGGUAGAACGAUUAUCCGGUGUACGAAGUUUCAGCUGGUUGGUUGGUUGGUUGGUUGGUUGGUUGGUGCUGAAGCUUCGUGCAC

Columns and labels:
Experiment in all cases: FOREST: bead pull-down of RNA structure library v1, barcode microarray; U1A/LIN28A: 20 mM HEPES pH 7.5, 80 mM KCl, 20 mM NaCl, 10% glycerol, 2 mM DTT, 0.1 ug/uL BSA, 4 C; BG4/CIRBP/DHX36: 10 mM Tris-HCl pH 7.5, 100 mM KCl (or LiCl),; high values mean tight binding
U1A = U1A (Homo sapiens, UniProt P09012)
LIN28A = target: T1, LIN28A
CIRBP = target: T2, CIRBP
DHX36 = target: T3, DHX36

Binder | binding signal (U1A) [z-score] | binding signal (LIN28A) [z-score] | binding signal (CIRBP) [z-score] | binding signal (DHX36) [z-score]
B1 | 0.938 | 0.456 | 0.677 | -0.738
B2 | 0.932 | -0.129 | -1.07 | 0.341
B3 | 0.953 | 2.02 | 0.53 | 0.593
B4 | 0.899 | 0.397 | 1.19 | -0.311
B5 | 0.936 | 0.65 | -0.0341 | 0.365
B6 | 0.943 | 0.703 | -0.676 | -0.441
B7 | 0.901 | -0.411 | 0.0671 | -0.424
B8 | 2.44 | 1.18 | 0.831 | 0.616
B9 | 0.946 | 0.718 | 2.25 | 0.317
B10 | 0.907 | 0.179 | 0.000803 | -0.155
B11 | 0.918 | -1.04 | 0.245 | -0.614
B12 | 0.891 | -0.00508 | 0.0438 | 0.745
B13 | 0.927 | -0.207 | -0.329 | -0.821
B14 | 0.943 | 0.395 | 0.886 | 0.0614
B15 | 0.896 | 0.871 | -0.913 | -0.921
B16 | 0.941 | 0.541 | 1.45 | 8.05
B17 | 0.898 | 0.961 | 5.02 | 6.65
B18 | 0.939 | -1.87 | -1.17 | -0.816
B19 | 2.4 | -0.149 | -0.37 | 0.426
B20 | 0.895 | 0.737 | 0.831 | -0.0916
B21 | 0.926 | 0.166 | -0.157 | 0.78
B22 | 0.939 | -0.29 | -0.0978 | 8.36
